Data reported in PubChem BioAssay (NCI).
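How tested: cells in 96-well plates exposed to compound for 48 hours at five concentrations. Here, GI50 denotes the concentration required for 50% inhibition of growth.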

What was measured:
Assay in all cases: NCI-60 cell line screen, 48 h; in the data active means GI50 below about 0.43 µM; inactive means the rest
HT29 colon = tested on: HT29 colon
SNB-75 CNS = tested on: SNB-75 CNS
MDA-MB-435 = tested on: MDA-MB-435
SN12C renal = tested on: SN12C renal
SR leukemia = tested on: SR leukemia
OVCAR-8 ovarian = tested on: OVCAR-8 ovarian
UACC-62 melanoma = tested on: UACC-62 melanoma
UACC-257 melanoma = tested on: UACC-257 melanoma
HOP-62 NSCLC = tested on: HOP-62 NSCLC
HL-60(TB) leukemia = tested on: HL-60(TB) leukemia
MCF7 breast = tested on: MCF7 breast
DU-145 prostate = tested on: DU-145 prostate
CCRF-CEM leukemia = tested on: CCRF-CEM leukemia
786-0 renal = tested on: 786-0 renal
NCI-H322M lung = tested on: NCI-H322M lung
COLO 205 colon = tested on: COLO 205 colon
CAKI-1 renal = tested on: CAKI-1 renal
SK-MEL-5 melanoma = tested on: SK-MEL-5 melanoma
TK-10 renal = tested on: TK-10 renal
HS 578T breast = tested on: HS 578T breast
SNB-19 CNS = tested on: SNB-19 CNS
M14 melanoma = tested on: M14 melanoma
NCI-H522 lung = tested on: NCI-H522 lung
K-562 leukemia = tested on: K-562 leukemia
OVCAR-3 ovarian = tested on: OVCAR-3 ovarian
OVCAR-4 ovarian = tested on: OVCAR-4 ovarian
NCI-H460 lung = tested on: NCI-H460 lung
U251 CNS = tested on: U251 CNS
SF-295 CNS = tested on: SF-295 CNS
NCI/ADR-RES ovarian = tested on: NCI/ADR-RES ovarian
NCI-H23 lung = tested on: NCI-H23 lung
ACHN renal = tested on: ACHN renal
HCT-116 colon = tested on: HCT-116 colon
LOX IMVI melanoma = tested on: LOX IMVI melanoma
SK-MEL-28 melanoma = tested on: SK-MEL-28 melanoma
BT-549 breast = tested on: BT-549 breast
SF-268 CNS = tested on: SF-268 CNS
SW-620 colon = tested on: SW-620 colon
NCI-H226 lung = tested on: NCI-H226 lung
IGROV1 ovarian = tested on: IGROV1 ovarian
RPMI-8226 leukemia = tested on: RPMI-8226 leukemia
HCT-15 colon = tested on: HCT-15 colon
A549 NSCLC = tested on: A549 NSCLC
PC-3 prostate = tested on: PC-3 prostate
MALME-3M melanoma = tested on: MALME-3M melanoma
OVCAR-5 ovarian = tested on: OVCAR-5 ovarian
UO-31 renal = tested on: UO-31 renal
HOP-92 NSCLC = tested on: HOP-92 NSCLC
MDA-N = tested on: MDA-N
SK-OV-3 ovarian = tested on: SK-OV-3 ovarian
SK-MEL-2 melanoma = tested on: SK-MEL-2 melanoma
MOLT-4 leukemia = tested on: MOLT-4 leukemia
T-47D breast = tested on: T-47D breast
EKVX NSCLC = tested on: EKVX NSCLC
RXF 393 renal = tested on: RXF 393 renal
HCC-2998 colon = tested on: HCC-2998 colon
A498 renal = tested on: A498 renal
SF-539 CNS = tested on: SF-539 CNS
KM12 colon = tested on: KM12 colon
MDA-MB-231 breast = tested on: MDA-MB-231 breast

Measured: GI50

Cc1cc(N(CCCl)CCCl)ccc1C=O
inactive: HT29 colon 42.5 µM | SNB-75 CNS 20.5 µM | MDA-MB-435 = 54.5 µM | SN12C renal 10 µM | SR leukemia 2.18 µM | OVCAR-8 ovarian 34.2 µM | UACC-62 melanoma 1.67 µM | UACC-257 melanoma 4.82 µM | HOP-62 NSCLC 43.3 µM | HL-60(TB) leukemia 1.64 µM | MCF7 breast 14.4 µM | DU-145 prostate 23.6 µM | CCRF-CEM leukemia 5.75 µM | 786-0 renal 24.1 µM | NCI-H322M lung 69.4 µM | COLO 205 colon 21.5 µM | CAKI-1 renal 1.14 µM | SK-MEL-5 melanoma 21.8 µM | TK-10 renal 4.7 µM | HS 578T breast 39.7 µM | SNB-19 CNS 51.1 µM | M14 melanoma 32.1 µM | NCI-H522 lung 21 µM | K-562 leukemia 54.2 µM | OVCAR-3 ovarian 33.4 µM | OVCAR-4 ovarian 36.5 µM | NCI-H460 lung 0.741 µM | U251 CNS 26.4 µM | SF-295 CNS 27.8 µM | NCI/ADR-RES ovarian 32.2 µM | NCI-H23 lung 16.8 µM | ACHN renal 4.38 µM | HCT-116 colon 25.2 µM | LOX IMVI melanoma 22.2 µM | SK-MEL-28 melanoma 56.1 µM | BT-549 breast 13.6 µM | SF-268 CNS 18.9 µM | SW-620 colon 68.5 µM | NCI-H226 lung 1.31 µM | IGROV1 ovarian 97.1 µM | RPMI-8226 leukemia > 100 µM | HCT-15 colon 35.3 µM | A549 NSCLC 12.6 µM | PC-3 prostate 32.2 µM | MALME-3M melanoma 14.3 µM | OVCAR-5 ovarian 7.92 µM | UO-31 renal 13 µM | HOP-92 NSCLC 7.8 µM | MDA-N 46.8 µM | SK-OV-3 ovarian 69.3 µM | SK-MEL-2 melanoma 32.2 µM | MOLT-4 leukemia 2.39 µM | T-47D breast 37.3 µM | EKVX NSCLC 39 µM | RXF 393 renal 13.9 µM | HCC-2998 colon 33.7 µM | A498 renal 1.01 µM | SF-539 CNS 26 µM | KM12 colon 63.5 µM | MDA-MB-231 breast 80.4 µM
